Biological target: cynomolgus monkey M4 (Macaca fascicularis, UniProt G7PQB4)
Test: mAChR M4 cell-based functional assay (calcium flux), cyno M4
Details: % ACh maximum at 30 μM

Sequences of proteins named here, by UniProt entry; tags and fusion partners are left off. Residues count along the entry.
UniProt G7PQB4, 1-479: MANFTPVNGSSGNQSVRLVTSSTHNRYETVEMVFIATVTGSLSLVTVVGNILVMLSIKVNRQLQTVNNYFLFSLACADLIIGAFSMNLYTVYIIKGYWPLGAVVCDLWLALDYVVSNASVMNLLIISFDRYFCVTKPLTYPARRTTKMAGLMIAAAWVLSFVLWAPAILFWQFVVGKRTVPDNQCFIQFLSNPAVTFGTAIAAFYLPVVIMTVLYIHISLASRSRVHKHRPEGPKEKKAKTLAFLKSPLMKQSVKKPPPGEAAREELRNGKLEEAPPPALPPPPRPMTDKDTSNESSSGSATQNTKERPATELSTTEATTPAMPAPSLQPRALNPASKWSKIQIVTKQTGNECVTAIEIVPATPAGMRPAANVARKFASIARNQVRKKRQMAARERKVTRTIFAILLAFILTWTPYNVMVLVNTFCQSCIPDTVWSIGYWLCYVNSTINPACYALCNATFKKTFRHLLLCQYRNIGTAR

Work on `Cc1nnc2sc3c(NCc4ccc(C(C)(C)O)cc4)ncnc3c2c1C` [Compound 76, 2-[4-[[(3,4-Dimethylpyrimido[4′,5′:4,5]thieno[2,3-c]pyridazin-8-yl)amino]methyl]phenyl]propan-2-ol] yielded an Emax of 86%.

— patent US10239887B2, “Positive allosteric modulators of the muscarinic acetylcholine receptor M4” (Vanderbilt University, priority 2016, dated 2019)
